The results in this text go back to patent publication US6867193B1, “Amino acid-containing albumin preparation” (Nipro Corporation, priority 1999, dated 2005).

In test [1] the test system is hepatic encephalopathy model animal. The test is described as follows: hepatic encephalopathy model rat (partial hepatectomy + ammonium acetate): coma period and plasma ammonia (Test Examples 1-3). Type of test: in vivo. The protocol:
A test drug was prepared by dissolving rat serum albumin (RSA, manufactured by Sigma Corp.) in an amino acid solution (components are disclosed in Table 3) to form a 0.1 w/v % or 1.0 w/v % solution, adding 1.0 N hydrochloric acid thereto to adjust the pH to 6.6 to 7.4 according to Preparation Example 3, filling the solution into a 500 ml infusion bottle and heating at 60° C. for 10 hours after sealing the bottle with a rubber plug. In comparison, physiological saline or the amino acid solution (pH 6.6 to 7.4), respectively, was used in the same way.
Rat partial hepatectomy was carried out by performing a laparotomy of a male SD rat (body weight of 200 to 230 g) under etherization, removing a lateral left lobe, a medial left lobe and a medial right lobe (67%) and closing the abdomen (Archs. Pathol., 1985; 12: 186-202).
A hepatic encephalopathy model animal was created by administering 2 M ammonium acetate solution at a rate of 3 ml/kg into the rat abdomen after 48 hours from the partial hepatectomy (“Kiso to Rinsho”, 1987; 21: 2509-2527).
The test drug was injected from the rat tail vein (10 ml/kg) 2 minutes before administering the ammonium solution. Subsequently, the coma period (minutes) was measured, blood was collected from the rat tail vein 30 minutes after administration of the ammonium solution, and the ammonia concentration in the blood plasma was determined by using an ammonia measuring reagent kit (brand name: Determiner NH3, manufactured by Kyowa Medics Corporation).
As well, the creation of a hepatic encephalopathy model animal was confirmed by a coma of the rat resulting from administrating an ammonium acetate solution thereto.
A test drug was prepared by dissolving human serum albumin (HSA, manufactured by Sigma Corp.) in the amino acid solution (components are disclosed in Table 3) in the same manner as in Preparation Example 3 to form a desired concentration of the solution (0.001, 0.01, 0.1 or 1.0 w/v %). 6 to 14 male SD rats (body weight 200 to 230 g) as test animals were used per one group, and creation of a hepatic encephalopathy model animal and a test method were carried out in the same manner as Test Example 1. The test drug was injected in an amount of 10 ml/kg from the tail vein.
A test drug was prepared by dissolving bovine serum albumin (BSA, manufactured by Sigma Corp.) in the amino acid solution (components bare disclosed in Table 3) in the same manner as in Preparation Example 3 to form a desired concentration of the solution (0.1 w/v % or 1.0 w/v %). Creation of a hepatic encephalopathy model animal and a test method were carried out in the same manner as Test Example 1.

For test [2], the system named is Ammonia encephalopathy model animals. The test is described as follows: ammonia encephalopathy model rat: free amino acid concentration in serum and Fischer ratio (Test Example 4). In kind it is in vivo. The protocol:
A test drug was prepared by dissolving human serum albumin in the amino acid solution (components are disclosed in Table 3) in the same manner as in Preparation Example 3 to form a desired concentration (0.01, 0.1, 1.0 w/v %) of the solution. 5 male SD rats (body weight 200 to 230 g) as test animals were used per one group. Ammonia encephalopathy model animals were created by partially removing the liver and then administering 2 M ammonium acetate solution. The test drug was injected to an abdominal aorta in an amount of 10 ml/kg 2 minutes before administration of the ammonium solution. After 1.5 hours from the administration of the ammonium solution, the blood was collected from the abdominal aorta under etherization. An equivalent volume of 5 w/v % trichloroacetic acid solution was promptly added into the blood to centrifuge and, thereafter, the supernatant was measured using an amino acid analyzer (D-7000, manufactured by Hitachi) to determine the free amino acid concentration in the serum. The Fischer ratio was determined from the amino acid concentration in the serum.

[3] abbreviates: Test Example 2, compared with control group.

With “1.0% HSA: human serum albumin (HSA, manufactured by Sigma Corp.), 1.0% final concentration, given alone”, the “concentration of ammonia in the blood” value in test [1] (Test Example 2 (HSA), 10 ml/kg tail vein, mean ± standard error) came to 116 ± 12 µmol/dL. In addition, in test [1] (Test Example 2 (HSA), male SD rat, 10 ml/kg tail vein, mean ± standard error), the coma period is given as 33 ± 10 min. In test [1] (setting [3]), the “effect on ammonia concentration in the blood” value was “no effect” and the “effect on coma period” value is on record as “no effect”. The “improvement of Fischer ratio” value in test [2] was “not improved”. Further, the “concentration of amino acid in the blood” value in test [2] (10 ml/kg abdominal aorta 2 min before ammonium solution, blood 1.5 hours after ammonium solution, mean ± standard error) turned out to be 8.2 ± 0.8 µmol/dL. Besides, the Fischer ratio in test [2] (determined from amino acid concentration in the serum, 1.5 hours after ammonium solution, mean ± standard error) was found to be 0.97 ± 0.27.
